Our source for the IC50 values is patent US10174016B2 (BAYER AKTIENGESELLSCHAFT, priority 2014, dated 2019).

Protein sequences, listed by entry. Tags and fused reporters are not part of them. Lines headed by an entry give the natural chain unless they say otherwise; changes in a name come on top.
UniProt P56373: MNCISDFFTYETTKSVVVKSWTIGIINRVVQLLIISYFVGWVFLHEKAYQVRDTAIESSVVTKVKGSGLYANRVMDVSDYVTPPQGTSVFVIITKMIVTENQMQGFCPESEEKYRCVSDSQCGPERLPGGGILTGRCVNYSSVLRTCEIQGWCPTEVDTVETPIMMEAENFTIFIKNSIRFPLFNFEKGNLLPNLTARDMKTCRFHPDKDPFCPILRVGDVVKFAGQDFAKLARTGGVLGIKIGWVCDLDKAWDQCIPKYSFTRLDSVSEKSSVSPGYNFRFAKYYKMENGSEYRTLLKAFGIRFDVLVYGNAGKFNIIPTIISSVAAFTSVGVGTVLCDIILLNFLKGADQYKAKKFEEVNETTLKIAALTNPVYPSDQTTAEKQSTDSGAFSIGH
UniProt Q9UBL9: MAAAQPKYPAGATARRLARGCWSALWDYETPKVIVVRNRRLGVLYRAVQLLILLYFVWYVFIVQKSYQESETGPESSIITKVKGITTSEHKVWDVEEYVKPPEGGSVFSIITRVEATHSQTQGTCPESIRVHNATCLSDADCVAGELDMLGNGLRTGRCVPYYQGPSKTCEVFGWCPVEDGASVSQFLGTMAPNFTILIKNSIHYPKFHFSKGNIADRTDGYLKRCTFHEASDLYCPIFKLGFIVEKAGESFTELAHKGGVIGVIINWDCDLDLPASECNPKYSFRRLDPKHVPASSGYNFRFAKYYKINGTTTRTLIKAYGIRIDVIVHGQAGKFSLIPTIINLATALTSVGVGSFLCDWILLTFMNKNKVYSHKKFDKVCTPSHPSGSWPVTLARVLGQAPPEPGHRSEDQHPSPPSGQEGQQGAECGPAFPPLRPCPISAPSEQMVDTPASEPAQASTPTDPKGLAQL

Structures are written as SMILES. Where two headings read alike, the source gives them in different places.

For assay [1], the target named is human P2X2/3 receptor (Homo sapiens (Human), UniProt P56373+Q9UBL9). The assay can be described thus: Intracellular calcium measurement (FLIPR, Fluo-4) of antagonist activity at human P2X2/3 receptors. In kind it is cell-based. Particulars: human P2X2/3, FLIPR calcium assay, agonist α,β-Me-ATP; read-out: hP2X2/3 IC50. For orientation: Calcium assays in cells follow changes in intracellular calcium, usually with a dye or a luminescent sensor.

The target of assay [2] is human P2X3 receptor (Homo sapiens (Human), UniProt P56373).
[3] abbreviates: hP2X3 IC50 (nM), human P2X3, FLIPR calcium assay, agonist α,β-Me-ATP.

In the case of `Cc1cnc(-c2cc(OC(C)C(C)O)cc(C(=O)N[C@H](C)c3ccc(C(F)(F)F)nn3)c2)s1` (single isomer, unassigned) [Example 183], in assay [1], the IC50 is 398 nM.

Take `CC(O)C(C)Oc1cc(C(=O)N[C@H](C)c2cnc(C(F)(F)F)nc2)cc(-c2ncc(Cl)s2)c1` (single isomer, unassigned) [Example 184]: the IC50 stood at 6 nM in assay [2] (setting [3]) and 128 nM in assay [1].

For the molecule `CC(O)C(C)Oc1cc(C(=O)N[C@H](C)c2cnc(C(F)(F)F)nc2)cc(-c2ncc(Cl)s2)c1` (single isomer, unassigned) [Example 185], the IC50 amounted to 4 nM in assay [2] (setting [3]), 4 nM in assay [2] (human P2X3 receptor IC50) and 123 nM in assay [1].

As for `CC(O)C(C)Oc1cc(C(=O)N[C@H](C)c2ccc(C(F)(F)F)nc2)cc(-c2ncc(Cl)s2)c1` (single isomer, unassigned) [Example 186], the results for the IC50 in assay [2] (setting [3]) and in assay [1] were 10 nM and 247 nM, respectively.

Regarding `CC(O)C(C)Oc1cc(C(=O)N[C@H](C)c2cnc(C(F)(F)F)nc2)cc(-c2ncc(Cl)s2)c1` (single isomer, unassigned) [Example 187], the results for the IC50 in assay [2] (setting [3]) and in assay [1] were 7 nM and 218 nM, respectively.

Consider `CC(O)C(C)Oc1cc(C(=O)N[C@H](C)c2cnc(C(F)(F)F)nc2)cc(-c2ncc(Cl)s2)c1` (single isomer, unassigned) [Example 188], for which the IC50 in assay [2] (setting [3]) was determined as 5 nM; in assay [1], 164 nM.

In the case of `CC(O)C(C)Oc1cc(C(=O)N[C@H](C)c2ccc(C(F)(F)F)nc2)cc(-c2ncc(Cl)s2)c1` (single isomer, unassigned) [Example 189], the values for the IC50 in assay [2] (setting [3]) and in assay [1] were 8 nM and 258 nM, respectively.

For `Cc1cnc(-c2cc(OC3CCOCC3)cc(C(=O)NC(C)c3nnc(C(F)(F)F)s3)c2)s1` (single isomer, unassigned) [Example 195, 3-(5-methyl-1,3-thiazol-2-yl)-5-(tetrahydro-2H-pyran-4-yloxy)-N-{1-[5-(trifluoromethyl)-1,3,4-thiadiazol-2-yl]ethyl}benzamide], the IC50 in assay [1] is at least 10000 nM.

Take `Cc1cnc(-c2cc(OC3CCOCC3)cc(C(=O)NC(C)c3nnc(C(F)(F)F)s3)c2)s1` (single isomer, unassigned) [Example 196, 3-(5-methyl-1,3-thiazol-2-yl)-5-(tetrahydro-2H-pyran-4-yloxy)-N-{1-[5-(trifluoromethyl)-1,3,4-thiadiazol-2-yl]ethyl}benzamide]: the IC50 in assay [1] came out at 293 nM.

For the molecule `Cc1cnc(-c2cc(OC3CCCNC3)cc(C(=O)N[C@H](C)c3cnc(C(F)(F)F)nc3)c2)s1` (single isomer, unassigned) [Example 205], the IC50 in assay [1] came out at 272 nM.

As to `Cc1cnc(-c2cc(OC3CCCNC3)cc(C(=O)N[C@H](C)c3cnc(C(F)(F)F)nc3)c2)s1` (single isomer, unassigned) [Example 206], the IC50 in assay [1] amounted to 1680 nM.

Take `Cc1cnc(-c2cc(OC3CCN(C)C(C(F)(F)F)C3)cc(C(=O)N[C@H](C)c3cnc(C(F)(F)F)nc3)c2)s1` (single isomer, unassigned) [Example 222]: the figures for the IC50 in assay [2] (setting [3]) and in assay [1] were 4 nM and 108 nM, respectively.

For the molecule `Cc1cnc(-c2cc(OC(C)C(C)O)cc(C(=O)N[C@H](C)c3ccc(C(F)(F)F)nn3)c2)s1` (single isomer, unassigned) [Example 230], the IC50 in assay [1] is 209 nM.

Regarding `Cc1cnc(-c2cc(OC(C)C(C)O)cc(C(=O)N[C@H](C)c3ccc(C(F)(F)F)nn3)c2)s1` (single isomer, unassigned) [Example 231], the IC50 in assay [1] came out at 706 nM.

For the molecule `CCc1cnc(-c2cc(OC[C@@H]3CCOC3)cc(C(=O)N[C@H](C)c3ccc(C(F)(F)F)nn3)c2)s1` [Example 292, 3-(5-ethyl-1,3-thiazol-2-yl)-5-[(3R)-tetrahydrofuran-3-ylmethoxy]-N-{(1R)-1-[6-(trifluoromethyl)pyridazin-3-yl]ethyl}benzamide], the IC50 in assay [2] (read-out: hP2X3 IC50) was 6 nM.

On to `CCc1cnc(-c2cc(OC[C@H]3CCOC3)cc(C(=O)N[C@H](C)c3ccc(C(F)(F)F)nn3)c2)s1` [Example 296, 3-(5-ethyl-1,3-thiazol-2-yl)-5-[(3S)-tetrahydrofuran-3-ylmethoxy]-N-{(1R)-1-[6-(trifluoromethyl)pyridazin-3-yl]ethyl}benzamide], for which, in assay [2] (read-out: hP2X3 IC50, human P2X3, FLIPR calcium assay, agonist α,β-Me-ATP), the IC50 is 6 nM.
